Laboratory results reported in US4267102A, “Bleomycin group antibiotics” (Nippon Kayaku Kabushiki Kaisha, priority 1979, dated 1981).
Entries after “also recorded” stand apart in the source; their conditions may differ.

By UniProt entry, the sequences of proteins in these tests, tags left out. Where a name states a change or a piece, a line headed by the entry shows the natural chain unless it says otherwise.
UniProt P70645: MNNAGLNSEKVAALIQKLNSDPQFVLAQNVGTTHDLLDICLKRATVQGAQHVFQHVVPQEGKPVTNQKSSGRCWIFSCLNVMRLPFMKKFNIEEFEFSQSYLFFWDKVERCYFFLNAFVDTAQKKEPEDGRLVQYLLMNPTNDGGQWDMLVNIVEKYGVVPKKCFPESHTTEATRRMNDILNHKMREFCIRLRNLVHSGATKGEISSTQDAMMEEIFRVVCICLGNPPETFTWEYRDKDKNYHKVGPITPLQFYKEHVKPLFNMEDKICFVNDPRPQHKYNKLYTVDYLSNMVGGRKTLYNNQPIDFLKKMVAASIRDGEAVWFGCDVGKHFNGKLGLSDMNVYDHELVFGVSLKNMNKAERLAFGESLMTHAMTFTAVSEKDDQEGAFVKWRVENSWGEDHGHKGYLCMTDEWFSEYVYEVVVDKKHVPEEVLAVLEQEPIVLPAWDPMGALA

Molecular target: inactivating enzyme (Rattus norvegicus, UniProt P70645)
Conditions: rat liver extract, 37° C., 15, 30, 60 and 120 minutes; residual activity against Mycobacterium smegmatis ATCC 607

For N-methylbleomycinic acid [Compound (1)], the “Resistance to inactivating enzyme (residual activity with reaction time, FIGS. 1 to 6)” value was “markedly resistant; also recorded: not inactivated”.
